Results on two compounds are retold here after patent publication US8003669B2, “Remedy for sleep disturbance” (Mitsubishi Tanabe Pharma Corporation, priority 2002, dated 2011).

Sequences of proteins named here, by UniProt entry; tags and fusion partners are left off. A change or cut given only in a name is not applied to a line headed by its entry.
UniProt P41146: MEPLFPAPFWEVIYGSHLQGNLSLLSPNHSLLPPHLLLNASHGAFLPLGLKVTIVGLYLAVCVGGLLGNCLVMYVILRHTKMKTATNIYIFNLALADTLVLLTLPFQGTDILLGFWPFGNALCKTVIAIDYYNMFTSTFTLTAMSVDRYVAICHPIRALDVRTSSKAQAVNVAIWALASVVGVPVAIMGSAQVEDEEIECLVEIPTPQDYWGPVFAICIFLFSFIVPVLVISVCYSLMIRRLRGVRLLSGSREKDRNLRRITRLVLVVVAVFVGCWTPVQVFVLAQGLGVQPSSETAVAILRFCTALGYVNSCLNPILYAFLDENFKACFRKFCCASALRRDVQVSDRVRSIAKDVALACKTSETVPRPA

Assay [1] has as its system rats. Briefly: Phase shift of circadian rhythm by the ORL-1 receptor agonist under a constant dark condition. The note with it: intraperitoneal, administered at CT6 or CT9.
Assay [2] concerns rats. Nature of the assay: Action of the ORL-1 receptor agonist on re-entrainment of a light-dark cycle. The conditions noted are these: 6-hour advancement of the light-dark cycle, administered at ZT6.
The target in another assay is human ORL-1 receptor (Homo sapiens, UniProt P41146). Briefly: Agonist action: inhibition of forskolin-stimulated cAMP elevation in HEK293 cells. It counts as cell-based. The conditions noted are these: HEK293 cells expressing human ORL-1 receptor, forskolin 1 μmol/L.
The subject of assay [3] is rats. Briefly: Antagonistic action of the ORL-1 receptor antagonist on the phase advancement by the ORL-1 receptor agonist. It counts as in vivo, rat. The note with it: constant dark, agonist intraperitoneally at CT6, compound D orally 1 hour before.

On to `CNC(=O)Cn1c(=O)n(C2CCN([C@@H]3Cc4cccc5cccc3c45)CC2)c2ccccc21`, for which, in the assay on rats [1], the “phase shift of body-temperature circadian rhythm” value is listed as “noticeable phase advancing action”. Moreover, the “time required for re-entrainment to a new light-dark cycle” value with rats [2] was “about 3 days”. Also, at human ORL-1 receptor, the “inhibition of cAMP production (ORL-1 receptor agonistic activity)” value is “inhibited cAMP production depending on concentration”.

With `O=C1NCN(c2ccccc2)C12CCN(C1Cc3cccc4cccc1c34)CC2` (racemic), in the assay with rats [1], the “phase shift of body-temperature circadian rhythm” value was “noticeable phase advancing action”. The “phase advancement by the agonist after pre-administration of test compound D” value with rats [3] is “antagonized by pre-administration of the test compound D”. Also, the “inhibition of cAMP production (ORL-1 receptor agonistic activity)” value on human ORL-1 receptor is listed as “inhibited cAMP production depending on concentration”.
